## Yeast mating assay 1: variants of the scFv Ab-14

Target: peptide PDVDLGDISGINAS, taken from heptad repeat 2 (HR2) of SARS-CoV-2 spike.

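Library AAYL49 holds single substitutions and randomly drawn double and triple substitutions in the CDRs. AlphaSeq pools MATa yeast showing the antibodies with MATalpha yeast showing the peptide. Pairs that bind mate more often; barcode pairs of the diploids are counted by sequencing. The ratio of observed to expected reads was calibrated, replicate by replicate, on BCL2-family standards whose Kd was known from biolayer interferometry. There are three technical replicates.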

Each scFv is VH, the linker GGGGSGGGGSGGGGS, VL, as in the parent Ab-14, and differs from it in the CDRs of the heavy chain only.
VH: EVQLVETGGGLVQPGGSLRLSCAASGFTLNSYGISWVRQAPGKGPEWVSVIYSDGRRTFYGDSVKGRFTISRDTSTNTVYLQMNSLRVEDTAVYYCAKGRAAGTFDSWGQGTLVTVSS
VL: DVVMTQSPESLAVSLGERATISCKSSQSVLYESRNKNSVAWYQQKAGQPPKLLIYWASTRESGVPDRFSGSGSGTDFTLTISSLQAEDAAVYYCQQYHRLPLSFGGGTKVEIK

Positions count from residue 1 of the parent VH; D54Q puts Q in place of D. Every variant below is changed at R57 of the VH (sequential numbering). Kd is apparent (estimated from mating counts) and averaged on the log scale over replicates with a signal. Smaller is tighter. "nd" means that the variant was in the library but no mating with the target was seen in any replicate; the authors take this as a sign of poor binding, and no number exists. Empty control strains, which show no peptide, gave a signal in 15% of pairings with library AAYL49; the median was 11 µM and 95% of these signals were weaker than 680 nM. No background was subtracted. In this assay the parent's reference entry averaged 4.4 nM; its copy inside this library read 13 µM (one replicate of three).

The variant D54Q/R57S gave 3.3 µM (1 of 3 replicates). For N30W/I51E/R57C, the assay gave nd (0 of 3 replicates). The variant R57Y/Y60W/T104M showed nd (0 of 3 replicates). The variant F27K/R57T/D62V gave nd (0 of 3 replicates). With D54E/R57P/T104Q the result was 47 µM (1 of 3 replicates).

With I34S/R57C/R100D the result was 7.6 µM (3 of 3 replicates). With R57A the result was nd (0 of 3 replicates). For T28D/S53G/R57M, the assay gave 2.8 µM (2 of 3 replicates). With N30C/R57M/G103C the result was nd (0 of 3 replicates). The variant S31H/R57P/Y60A showed nd (0 of 3 replicates).

For R57W/G61Y, the assay gave 34 µM (2 of 3 replicates). The variant R57H gave 48 µM (2 of 3 replicates). With R56P/R57H/D106C the result was 210 nM (3 of 3 replicates). The variant R57F/F59N/K65Y showed nd (0 of 3 replicates). The variant L29W/R57A/G61L showed nd (0 of 3 replicates).

The variant I51T/R57T/A102Y showed 39 µM (2 of 3 replicates). For R57E/K65Q/G99R, the assay gave nd (0 of 3 replicates). The variant D54V/R57H/D106L showed 13 µM (1 of 3 replicates). With T28K/R57S/K65F the result was 1.6 µM (1 of 3 replicates). With Y32F/R57G/F59Q the result was 4.0 µM (1 of 3 replicates).

With L29F/Y32F/R57L the result was 9.6 µM (1 of 3 replicates). The variant S31H/R57C gave 89 µM (3 of 3 replicates). With R57E/S63I/T104F the result was nd (0 of 3 replicates). The variant G55H/R57S/A102I showed 330 nM (1 of 3 replicates). The variant L29C/Y32T/R57A gave nd (0 of 3 replicates).

For Y52D/R57G, the assay gave 4.2 µM (2 of 3 replicates). The variant R57G/G99L/S107E showed nd (0 of 3 replicates). The variant R57S/F59A/D106Q showed 2.0 µM (1 of 3 replicates). The variant R57Y/A102N showed 8.8 µM (1 of 3 replicates). With R57N/K65Y/A102W the result was 23 µM (2 of 3 replicates).

The variant G26S/L29N/R57P gave nd (0 of 3 replicates). With G55Q/R57F the result was nd (0 of 3 replicates). The variant S31Y/D54H/R57I showed 110 µM (2 of 3 replicates). The variant S53N/R57P/T58K showed nd (0 of 3 replicates). The variant I34S/R57M/T58K gave nd (0 of 3 replicates).

For I34F/R57Q/F59L, the assay gave 260 µM (3 of 3 replicates). The variant I51Y/Y52H/R57N gave nd (0 of 3 replicates). With V50P/R57L the result was 41 µM (1 of 3 replicates). The variant T28G/R57T/Y60N gave nd (0 of 3 replicates). With R57C/R100N the result was 5.4 µM (1 of 3 replicates).

The variant R57N/V64Y/K65M gave 8.3 µM (1 of 3 replicates). The variant N30A/G55M/R57I showed 770 µM (1 of 3 replicates).

Picked from the list: the 4 lowest averages where every replicate gave a value.

With R56P/R57H/D106C the result was 210 nM (3 of 3 replicates).
With I34S/R57C/R100D the result was 7.6 µM (3 of 3 replicates).
With S31H/R57C the result was 89 µM (3 of 3 replicates).
With I34F/R57Q/F59L the result was 260 µM (3 of 3 replicates).

Values reported by Engelhart et al. 2022, doi:10.1038/s41597-022-01779-4 (FLAb copy).